Only a part is listed here, and it is no random draw. Active and inactive are the calls of the source.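 Rule for the calls: active = activation of at least 50% relative to the plate's high and low controls in the primary single-dose screen; inactive = activation below 50%.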
Assay: compounds producing H2O2 with reducing agent – biochemical, NIH compound library profiling, artefact control for MLSCN library redox annotation, primary screen (AID 878);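 note: compound incubated with DTT at 0.8 mM final as the reducing agent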
Settings: DTT-dependent redox cycling H2O2, phenol red/HRP absorbance; at 10 µM; hits give high values; 100% = 100 µM peroxide control, 0% = buffer

SMILES	activation
Cc1cccc(C)c1OP(C)(=O)Nc1ccc(SC(F)(F)F)cc1 (centres undefined)	inactive: 0.21%
CP(=O)(Nc1ccccn1)Oc1ccc(Cl)cc1 (centres undefined)	inactive: -0.08%
CCOC(=O)c1ccc(NP(C)(=O)Oc2ccc(OC)cc2)cc1 (centres undefined)	inactive: 0.17%
CCOP(C)(=S)SCC(=O)NC(C)C(=O)O (centres undefined)	inactive: -1.52%
COc1ccccc1OP(C)(=O)Nc1c(C)n(C)n(-c2ccccc2)c1=O (centres undefined)	inactive: -0.6%
CP(=O)(Oc1ccccc1)N1CCOC1=O (centres undefined)	inactive: 1.88%
CCN(CC)CC(O)COC(=O)C(O)(c1ccccc1)C1CCCCC1 (centres undefined)	inactive: -0.15%
CN(C)C(=O)c1c([N+](=O)[O-])cc([N+](=O)[O-])cc1[N+](=O)[O-]	inactive: 0.18%
COc1ccccc1OP(C)(=O)Nc1ccccc1Br (centres undefined)	inactive: -0.33%
CC(C)(C)c1ccc(OP(C)(=O)O)cc1	inactive: 0.64%
CP(=O)(Nc1ccc(Cl)cc1)Oc1ccc(F)cc1 (centres undefined)	inactive: 0.51%
CCOC(=O)c1ccc(NP(C)(=O)Oc2ccc(Cl)cc2)cc1 (centres undefined)	inactive: 0.01%
CP(=O)(OC12CC3CC(CC(C3)C1)C2)OC12CC3CC(CC(C3)C1)C2	inactive: 0.34%
COc1ccccc1OP(C)(=O)Nc1ccc(C)c(C)c1 (centres undefined)	inactive: 0.4%
COc1ccc(OP(C)(=O)Nc2ccccc2Br)cc1 (centres undefined)	inactive: 0.05%
Cc1cc(C)cc(OP(C)(=O)Nc2cccc(C(F)(F)F)c2)c1 (centres undefined)	inactive: -0.42%
CP(=O)(Nc1ccc(Cl)cc1Cl)Oc1ccccc1 (centres undefined)	inactive: -1.59%
CP(=O)(OCCOc1ccccc1)OCCOc1ccccc1	inactive: -1.93%
Cc1nc2ccc3ccccc3c2o1.O=[N+]([O-])c1cc([N+](=O)[O-])c(O)c([N+](=O)[O-])c1	inactive: 3.19%
COc1ccc(OP(C)(=O)Nc2ccccn2)cc1 (centres undefined)	inactive: 0.37%

SMILES	activation
CN(C)CCOC(=O)C(O)(c1ccccc1)C1CCCC1 (centres undefined)	inactive: 0.46%
COc1ccccc1OP(C)(=O)Nc1ccc(C)cc1C (centres undefined)	inactive: -7.33%
CP(=O)(Nc1ccccn1)Oc1ccccc1 (centres undefined)	inactive: 2.29%
CCc1ccc(OP(C)(=O)O)cc1	inactive: 1.73%
Cc1c(NP(C)(=O)Oc2ccc(C(C)C)cc2)c(=O)n(-c2ccccc2)n1C (centres undefined)	inactive: 2.49%
O=[N+]([O-])c1cc([N+](=O)[O-])c(Nc2ccccn2)c([N+](=O)[O-])c1	inactive: 0.000623%
CP(=O)(Nc1ccccc1F)Oc1ccccc1 (centres undefined)	inactive: 0.57%
CC(C)c1ccc(OP(C)(=O)Nc2ccc(SC(F)(F)F)cc2)cc1 (centres undefined)	inactive: -0.01%
O=C(OCCN1CCN(CCOCc2ccccc2)CC1)C(O)(c1ccccc1)c1ccccc1	inactive: -0.5%
CCOC(=O)c1ccc(NP(C)(=O)Oc2ccc(F)cc2)cc1 (centres undefined)	inactive: 0.72%
COc1ccc(OP(C)(=O)Nc2ccc(SC(F)(F)F)cc2)cc1 (centres undefined)	inactive: -1.32%
CP(=O)(Nc1ccccc1)Oc1ccc(F)cc1 (centres undefined)	inactive: 1.78%
CCN(CC)CCCOC(=O)C(O)(c1ccccc1)C1CCCCC1 (centres undefined)	inactive: 0.15%
CN(C)CCOC(=O)C(O)(c1ccccc1)C1CCCCC1 (centres undefined)	inactive: 0.47%
COc1ccc(NP(C)(=O)Oc2ccccc2OC)cc1 (centres undefined)	inactive: 0.8%
COc1ccc(OP(C)(=O)Nc2cccc(Br)c2)cc1 (centres undefined)	inactive: -3.91%
O=[N+]([O-])c1cc([N+](=O)[O-])c(NCC2CCS(=O)(=O)C2)c([N+](=O)[O-])c1 (centres undefined)	inactive: -3.12%
Cc1ccccc1NP(C)(=O)Nc1ccccc1C	inactive: -1.43%
CP(=O)(Nc1ccc2c(c1)OCCO2)Oc1ccccc1 (centres undefined)	inactive: 0.9%
